# Assays:
# [1] = test system: Monocotyledonous and dicotyledonous weed; assay: Post-emergence test on weeds (greenhouse, spray tower); settings: after 3 weeks of cultivation in a greenhouse, fresh weight control rate
# Excerpt: (§1) The criteria for activity levels of plant damage (i.e., growth control rate) are as follows: • Level 9: completely dead; • Level 8: growth control rate greater than or equal to 90% and less than 100%; • Level 7: growth control rate greater than or equal to 80% and less than 90%; • Level 6: growth control rate greater than or equal to 70% and less than 80%; • Level 5: growth control rate greater than or equal to 50% and less than 70%; • Level 4: growth control rate greater than or equal to 30% and less than 50%; • Level 3: growth control rate greater than or equal to 20% and less than 30%; • Level 2: growth control rate greater than or equal to 10% and less than 20%; • Level 1: growth control rate less than 10%; • Level 0: no effect.
# (§2) The above growth control rates are fresh weight control rates.
# Monocotyledonous and dicotyledonous weed seeds as well as major crop seeds were placed in plastic pots filled with soil and then covered with 0.5-2 cm of soil to allow them grow in a favorable greenhouse environment. Two weeks after sowing, the test plants were treated. The test compounds of the present invention were individually dissolved with acetone, then added with Tween® 80 and the emulsifiable concentrate of methyl oleate as a synergist, diluted with certain amount of water to obtain solutions of certain concentrations, and sprayed to the plants using a spray tower. After drug application, the experimental results on weeds were collected after 3 weeks of cultivation in a greenhouse. Table 2 Results of post-emergence test on weeds
# [2] = test system: Monocotyledonous and dicotyledonous weed; assay: Pre-emergence test on weeds (greenhouse, sprayed immediately after sowing); settings: fresh weight control rate; for activity level of plant damage (growth control rate), Descurainia sophia / activity level of plant damage (growth control rate), Digitaria sanguinalis / activity level of plant damage (growth control rate), Lolium multiflorum / activity level of plant damage (growth control rate), Setaria viridis: after 4 weeks in greenhouse; for activity level of plant damage (growth control rate), Zea mays: crop Zea mays
# Excerpt: as §1, §2
# Monocotyledonous and dicotyledonous weed seeds as well as major crop seeds were placed in plastic pots filled with soil and then covered with 0.5-2 cm of soil. The test compounds of the present invention were individually dissolved with acetone, then added with Tween® 80, diluted with certain amount of water to obtain solutions of certain concentrations, and sprayed immediately after sowing. After drug application, the experimental results on weeds were observed after 4 weeks of cultivation in a greenhouse. Table 3 Results of pre-emergence test on weeds
# [3] = sprayed immediately after sowing, 240 g a.i./ha, observed after 4 weeks in greenhouse
# [4] = Descurainia sophia, Dosage 240 g a.i./ha
smiles,measurement,setting,value
C=C(C)[C@]1(C(=O)N[C@@H](C)C(=O)NOCC2=CCCC2)CC(c2cc(F)cc(Cl)c2)=NO1,"Digitaria sanguinalis, activity level of plant damage (growth control rate)",[1]; Dosage 60 g a.i./ha,8 (Level 8: growth control rate greater than or equal to 90% and less than 100%)
same,"Echinochloa crus-galli, activity level of plant damage (growth control rate)",[1]; Dosage 60 g a.i./ha,6 (Level 6: growth control rate greater than or equal to 70% and less than 80%)
same,"activity level (growth control rate), Digitaria sanguinalis",[2]; [3],9
same,"activity level (growth control rate), Setaria viridis",[2]; [3],9
C#CC[C@H](NC(=O)[C@@]1(C(=C)C)CC(c2cc(F)cc(Cl)c2)=NO1)C(=O)NOCC,"Digitaria sanguinalis, activity level of plant damage (growth control rate)",[1]; Dosage 60 g a.i./ha,8 (Level 8: growth control rate greater than or equal to 90% and less than 100%)
same,"Echinochloa crus-galli, activity level of plant damage (growth control rate)",[1]; Dosage 60 g a.i./ha,8 (Level 8: growth control rate greater than or equal to 90% and less than 100%)
same,"activity level (growth control rate), Digitaria sanguinalis",[2]; [3],9
same,"activity level (growth control rate), Setaria viridis",[2]; [3],9
C=C(C)[C@]1(C(=O)N[C@@H](C)C(=O)NOC)CC(c2cc(F)cc(F)c2)=NO1,"Avena fatua, activity level of plant damage (growth control rate)",[1]; Dosage 240 g a.i./ha,9
same,"Digitaria sanguinalis, activity level of plant damage (growth control rate)",[1]; Dosage 240 g a.i./ha,9
same,"Echinochloa crus-galli, activity level of plant damage (growth control rate)",[1]; Dosage 240 g a.i./ha,8 (Level 8: growth control rate greater than or equal to 90% and less than 100%)
C=C(C)[C@]1(C(=O)N[C@@H](C)C(=O)N2CCCO2)CC(c2cc(F)cc(F)c2)=NO1,"Digitaria sanguinalis, activity level of plant damage (growth control rate)",[1]; Dosage 60 g a.i./ha,8 (Level 8: growth control rate greater than or equal to 90% and less than 100%)
same,"Echinochloa crus-galli, activity level of plant damage (growth control rate)",[1]; Dosage 60 g a.i./ha,6 (Level 6: growth control rate greater than or equal to 70% and less than 80%)
same,"activity level of plant damage (growth control rate), Descurainia sophia",[2]; [4],9
same,"activity level of plant damage (growth control rate), Digitaria sanguinalis",[2]; Dosage 240 g a.i./ha,9
same,"activity level of plant damage (growth control rate), Lolium multiflorum",[2]; Dosage 240 g a.i./ha,9
same,"activity level of plant damage (growth control rate), Setaria viridis",[2]; Dosage 240 g a.i./ha,9
C=CCONC(=O)[C@H](C)NC(=O)[C@@]1(C(=C)C)CC(c2cc(F)cc(F)c2)=NO1,"Digitaria sanguinalis, activity level of plant damage (growth control rate)",[1]; Dosage 60 g a.i./ha,8 (Level 8: growth control rate greater than or equal to 90% and less than 100%)
same,"Echinochloa crus-galli, activity level of plant damage (growth control rate)",[1]; Dosage 60 g a.i./ha,8 (Level 8: growth control rate greater than or equal to 90% and less than 100%)
same,"activity level of plant damage (growth control rate), Descurainia sophia",[2]; [4],9
same,"activity level of plant damage (growth control rate), Digitaria sanguinalis",[2]; Dosage 240 g a.i./ha,9
same,"activity level of plant damage (growth control rate), Lolium multiflorum",[2]; Dosage 240 g a.i./ha,9
same,"activity level of plant damage (growth control rate), Setaria viridis",[2]; Dosage 240 g a.i./ha,9
C=C[C@]1(C(=O)N[C@@H](C)C(=O)N(C)OC)CC(c2cc(F)cc(F)c2)=NO1,"Avena fatua, activity level of plant damage (growth control rate)",[1]; Dosage 240 g a.i./ha,9
same,"activity level of plant damage (growth control rate), Descurainia sophia","[2]; Descurainia sophia, Dosage 250 g a.i./ha",9
same,"activity level of plant damage (growth control rate), Digitaria sanguinalis",[2]; Dosage 250 g a.i./ha,9
same,"activity level of plant damage (growth control rate), Lolium multiflorum",[2]; Dosage 250 g a.i./ha,9
same,"activity level of plant damage (growth control rate), Setaria viridis",[2]; Dosage 250 g a.i./ha,9
C=C[C@]1(C(=O)N[C@@H](C)C(=O)N(C)OC)CC(c2cc(Cl)cc(Br)c2)=NO1,"Avena fatua, activity level of plant damage (growth control rate)",[1]; Dosage 240 g a.i./ha,9
same,"activity level of plant damage (growth control rate), Digitaria sanguinalis",[2]; Dosage 240 g a.i./ha,9
same,"activity level of plant damage (growth control rate), Lolium multiflorum",[2]; Dosage 240 g a.i./ha,9
same,"activity level of plant damage (growth control rate), Setaria viridis",[2]; Dosage 240 g a.i./ha,9
C=C(C)[C@]1(C(=O)N[C@@H](C)C(=O)NOCc2cnccn2)CC(c2cc(F)cc(F)c2)=NO1,"Digitaria sanguinalis, activity level of plant damage (growth control rate)",[1]; Dosage 60 g a.i./ha,8 (Level 8: growth control rate greater than or equal to 90% and less than 100%)
same,"Echinochloa crus-galli, activity level of plant damage (growth control rate)",[1]; Dosage 60 g a.i./ha,6 (Level 6: growth control rate greater than or equal to 70% and less than 80%)
same,"activity level (growth control rate), Digitaria sanguinalis",[2]; [3],8 (Level 8: growth control rate greater than or equal to 90% and less than 100%)
same,"activity level (growth control rate), Setaria viridis",[2]; [3],9
same,"activity level of plant damage (growth control rate), Triticum aestivum","[2]; crop Triticum aestivum, sprayed immediately after sowing, 240 g a.i./ha, observed after 4 weeks in greenhouse",0
C=C[C@]1(C(=O)N[C@@H](C)C(=O)NOCC(F)(F)F)CC(c2cc(F)cc(F)c2)=NO1,"activity level of plant damage (growth control rate), Lolium multiflorum",[2]; Dosage 240 g a.i./ha,7 (Level 7: growth control rate greater than or equal to 80% and less than 90%)
C=C[C@]1(C(=O)N[C@@H](C)C(=O)N(C)OC)CC(c2cc(F)cc(C#N)c2)=NO1,"activity level of plant damage (growth control rate), Digitaria sanguinalis",[2]; Dosage 240 g a.i./ha,5 (Level 5: growth control rate greater than or equal to 50% and less than 70%)
same,"activity level of plant damage (growth control rate), Lolium multiflorum",[2]; Dosage 240 g a.i./ha,9
same,"activity level of plant damage (growth control rate), Setaria viridis",[2]; Dosage 240 g a.i./ha,9
C=CC1(C(=O)NCC(=O)N(C)OC)CC(c2cc(F)cc(F)c2)=NO1 (stereo not shown),"activity level of plant damage (growth control rate), Digitaria sanguinalis",[2]; Dosage 250 g a.i./ha,9
same,"activity level of plant damage (growth control rate), Lolium multiflorum",[2]; Dosage 250 g a.i./ha,9
same,"activity level of plant damage (growth control rate), Setaria viridis",[2]; Dosage 250 g a.i./ha,9
C=CC1(C(=O)N[C@H](C)C(=O)N(C)OC)CC(c2cccc(C)n2)=NO1 (stereo partly shown),"activity level of plant damage (growth control rate), Digitaria sanguinalis",[2]; Dosage 240 g a.i./ha,8 (Level 8: growth control rate greater than or equal to 90% and less than 100%)
same,"activity level of plant damage (growth control rate), Lolium multiflorum",[2]; Dosage 240 g a.i./ha,9
same,"activity level of plant damage (growth control rate), Setaria viridis",[2]; Dosage 240 g a.i./ha,8 (Level 8: growth control rate greater than or equal to 90% and less than 100%)
CC[C@]1(C(=O)N[C@@H](C)C(=O)NOC)CC(c2cc(Br)cc(Br)c2)=NO1,"activity level (growth control rate), Lolium multiflorum",[2]; [3],9
same,"activity level of plant damage (growth control rate), Zea mays",[2]; [3],0
C=C(C)[C@]1(C(=O)N[C@@H](C)C(=O)NOCC(C)C)CC(c2cc(F)cc(F)c2)=NO1,"Amaranthus retroflexus, activity level of plant damage (growth control rate)",[1]; Dosage 60 g a.i./ha,5 (Level 5: growth control rate greater than or equal to 50% and less than 70%)
same,"Digitaria sanguinalis, activity level of plant damage (growth control rate)",[1]; Dosage 60 g a.i./ha,9
same,"Echinochloa crus-galli, activity level of plant damage (growth control rate)",[1]; Dosage 60 g a.i./ha,8 (Level 8: growth control rate greater than or equal to 90% and less than 100%)
C=C[C@]1(C(=O)N[C@@H](C)C(=O)N(C)OCC)CC(c2cc(F)cc(F)c2)=NO1,"activity level of plant damage (growth control rate), Descurainia sophia",[2]; [4],8 (Level 8: growth control rate greater than or equal to 90% and less than 100%)
same,"activity level of plant damage (growth control rate), Digitaria sanguinalis",[2]; Dosage 240 g a.i./ha,9
same,"activity level of plant damage (growth control rate), Lolium multiflorum",[2]; Dosage 240 g a.i./ha,9
same,"activity level of plant damage (growth control rate), Setaria viridis",[2]; Dosage 240 g a.i./ha,9
C=C[C@]1(C(=O)N[C@@H](C)C(=O)N(C)OC)CC(c2cc(C(F)(F)F)cc(C(F)(F)F)c2)=NO1,"Avena fatua, activity level of plant damage (growth control rate)",[1]; Dosage 240 g a.i./ha,9
C=C[C@]1(C(=O)N[C@@H](C)C(=O)NOC)CC(c2cc(F)cc(Br)c2)=NO1,"activity level (growth control rate), Descurainia sophia","[2]; Descurainia sophia, sprayed immediately after sowing, 240 g a.i./ha, observed after 4 weeks in greenhouse",7 (Level 7: growth control rate greater than or equal to 80% and less than 90%)
same,"activity level (growth control rate), Lolium multiflorum",[2]; [3],9
same,"activity level of plant damage (growth control rate), Zea mays",[2]; [3],0
C=C[C@]1(C(=O)NCC(=O)N(C)OC)CC(c2cc(F)cc(F)c2)=NO1,"activity level of plant damage (growth control rate), Descurainia sophia",[2]; [4],9
same,"activity level of plant damage (growth control rate), Digitaria sanguinalis",[2]; Dosage 240 g a.i./ha,6 (Level 6: growth control rate greater than or equal to 70% and less than 80%)
same,"activity level of plant damage (growth control rate), Lolium multiflorum",[2]; Dosage 240 g a.i./ha,9
same,"activity level of plant damage (growth control rate), Setaria viridis",[2]; Dosage 240 g a.i./ha,6 (Level 6: growth control rate greater than or equal to 70% and less than 80%)
C=C(C)[C@]1(C(=O)N[C@@H](C)C(=O)N(C)OC)CC(c2cc(F)cc(Br)c2)=NO1,"activity level of plant damage (growth control rate), Digitaria sanguinalis",[2]; Dosage 240 g a.i./ha,9
same,"activity level of plant damage (growth control rate), Lolium multiflorum",[2]; Dosage 240 g a.i./ha,8 (Level 8: growth control rate greater than or equal to 90% and less than 100%)
same,"activity level of plant damage (growth control rate), Setaria viridis",[2]; Dosage 240 g a.i./ha,9
C=C[C@@]1(C(=O)N[C@@H](C)C(=O)NOC)CC(c2cc(F)cc(F)c2)=NO1,"Avena fatua, activity level of plant damage (growth control rate)",[1]; Dosage 240 g a.i./ha,9
CCON(C)C(=O)[C@H](C)NC(=O)[C@@]1(CC)CC(c2cc(F)cc(F)c2)=NO1,"activity level of plant damage (growth control rate), Digitaria sanguinalis",[2]; Dosage 240 g a.i./ha,9
same,"activity level of plant damage (growth control rate), Lolium multiflorum",[2]; Dosage 240 g a.i./ha,9
same,"activity level of plant damage (growth control rate), Setaria viridis",[2]; Dosage 240 g a.i./ha,9
C=C(C)[C@]1(C(=O)N[C@H](C)C(=O)NOCC)CC(c2cc(F)cc(F)c2)=NO1,"Avena fatua, activity level of plant damage (growth control rate)",[1]; Dosage 240 g a.i./ha,6 (Level 6: growth control rate greater than or equal to 70% and less than 80%)
C=C[C@@]1(C(=O)N[C@@H](C)C(=O)N(C)OC)CC(c2cc(C(F)(F)F)cc(C(F)(F)F)c2)=NO1,"activity level of plant damage (growth control rate), Setaria viridis",[2]; Dosage 240 g a.i./ha,5 (Level 5: growth control rate greater than or equal to 50% and less than 70%)
CON(C)C(=O)[C@H](C)NC(=O)C1(C(F)(F)F)CC(c2cc(F)cc(F)c2)=NO1 (stereo partly shown),"activity level of plant damage (growth control rate), Digitaria sanguinalis",[2]; Dosage 240 g a.i./ha,9
same,"activity level of plant damage (growth control rate), Lolium multiflorum",[2]; Dosage 240 g a.i./ha,9
same,"activity level of plant damage (growth control rate), Setaria viridis",[2]; Dosage 240 g a.i./ha,9

# Reference: patent EP4837910A1, “ISOXAZOLINE COMPOUND AND PREPARATION METHOD THEREFOR, HERBICIDAL COMPOSITION, AND USE” (dated 2026)
